# Measured values: patent publication US20220273666A1, “NANOPARTICLE FORMULATION OF BCL-2 INHIBITOR” (Recurium IP Holdings, LLC, priority 2019, published 2022)
# Sequences of proteins named here, by UniProt entry; tags and fusion partners are left off.
# UniProt Q07817, whole entry: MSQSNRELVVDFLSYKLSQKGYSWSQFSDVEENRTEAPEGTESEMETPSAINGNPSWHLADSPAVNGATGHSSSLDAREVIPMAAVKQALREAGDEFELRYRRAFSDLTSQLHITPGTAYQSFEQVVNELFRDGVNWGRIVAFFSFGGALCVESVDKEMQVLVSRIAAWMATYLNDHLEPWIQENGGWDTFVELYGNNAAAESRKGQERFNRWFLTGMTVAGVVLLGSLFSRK
# UniProt P10415, whole entry: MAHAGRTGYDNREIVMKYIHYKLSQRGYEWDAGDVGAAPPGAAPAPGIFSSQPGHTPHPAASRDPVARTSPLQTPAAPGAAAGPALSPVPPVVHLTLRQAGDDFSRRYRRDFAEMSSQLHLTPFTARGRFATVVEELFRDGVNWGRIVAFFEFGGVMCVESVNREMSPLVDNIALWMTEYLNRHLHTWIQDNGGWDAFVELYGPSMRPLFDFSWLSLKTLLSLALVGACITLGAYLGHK
# Experiments:
# Bcl-XL [1] = target: T1, Bcl-XL (Homo sapiens, UniProt Q07817); experiment: Bcl-2/Bcl-XL HTRF assay; type: binding; settings: read-out: Bcl-XL IC50, 3 nM Bcl-XL, 40 nM FAM-Bad peptide
# Bcl-XL [2] = target: T1, Bcl-XL; experiment: Bcl-2 protein family binding assay (Bcl2scan platform); settings: read-out: Bcl-XL Kd, BIM peptide ligand, 11-point dilution
# Bcl-2 = Bcl-2 (Homo sapiens, UniProt P10415); experiment: as above; settings: read-out: Bcl-2 Kd, BIM peptide ligand, 11-point dilution
Kd (Bcl-XL [2]) [nM],Kd (Bcl-2) [nM],SMILES,IC50 (Bcl-XL [1]) [nM]
,,CN(CCO)CC[C@H](CSc1ccccc1)Nc1ccc(S(=O)(=O)NC(=O)c2ccc(N3CCN(CC4=C(C56CC(C(F)F)(C5)C6)CC(C)(C)CC4)CC3)cc2)cc1S(=O)(=O)C(F)(F)F,< 10
> 100,,CCC12CC(C3=C(CN4CCN(c5ccc(C(=O)NS(=O)(=O)c6ccc(NCC7CCOCC7)c([N+](=O)[O-])c6)c(Oc6cnc7[nH]ccc7c6)c5)CC4)CCC(C)(C)C3)(C1)C2,
> 100,,CC1(C)CCC(CN2CCN(c3ccc(C(=O)NS(=O)(=O)c4ccc(NCC5CCOCC5)c([N+](=O)[O-])c4)c(Oc4cnc5[nH]ccc5c4)c3)CC2)=C(C23CC(C(C)(F)F)(C2)C3)C1,
> 100,,CCC12CC(C3=C(CN4CCN(c5ccc(C(=O)NS(=O)(=O)c6ccc(NC[C@H]7CC[C@](C)(O)CC7)c([N+](=O)[O-])c6)c(Oc6cnc7[nH]ccc7c6)c5)CC4)CCC(C)(C)C3)(C1)C2,
10 to 100,,CC1(C)CCC(CN2CCN(c3ccc(C(=O)NS(=O)(=O)c4ccc(OCC5(F)CCOCC5)c([N+](=O)[O-])c4)c(Oc4cnc5[nH]ccc5c4)c3)CC2)=C(C23CC(C(F)F)(C2)C3)C1,
> 100,,CC1(C)CCC(CN2CCN(c3ccc(C(=O)NS(=O)(=O)c4ccc(NCC5CCOCC5)c([N+](=O)[O-])c4)c(Oc4cnc5[nH]ccc5c4)c3)CC2)=C(C23CC(C(F)(F)F)(C2)C3)C1,
> 100,10 to 100,CC(C)C12CC(C3=C(CN4CCN(c5ccc(C(=O)NS(=O)(=O)c6ccc(NCC7CCOCC7)c([N+](=O)[O-])c6)c(Oc6cnc7[nH]ccc7c6)c5)CC4)CCC(C)(C)C3)(C1)C2,
,,CC1(C)CCC(CN2CCN(c3ccc(C(=O)NS(=O)(=O)c4ccc(N[C@H](CCN5CCC(O)CC5)CSc5ccccc5)c(S(=O)(=O)C(F)(F)F)c4)cc3)CC2)=C(C23CC(C(F)F)(C2)C3)C1,< 10
> 100,,CC1(C)CCC(CN2CCN(c3ccc(C(=O)NS(=O)(=O)c4ccc(NCC5(F)CCOCC5)c([N+](=O)[O-])c4)c(Oc4cnc5[nH]ccc5c4)c3)CC2)=C(C23CC(C(F)(F)F)(C2)C3)C1,
,,CCC12CC(C3=C(CN4CCN(c5ccc(C(=O)NS(=O)(=O)c6ccc(N[C@H](CCN(C)CCO)CSc7ccccc7)c(S(=O)(=O)C(F)(F)F)c6)cc5)CC4)CCC(C)(C)C3)(C1)C2,< 10
,,CC1(C)CCC(C23CC(Cl)(C2)C3)=C(CN2CCN(c3ccc(C(=O)NS(=O)(=O)c4ccc(N[C@H](CCN5CCC(O)CC5)CSc5ccccc5)c(S(=O)(=O)C(F)(F)F)c4)cc3)CC2)C1,< 10
,,O=C(NS(=O)(=O)c1ccc(N[C@H](CCN2CCC(O)CC2)CSc2ccccc2)c(S(=O)(=O)C(F)(F)F)c1)c1ccc(N2CCN(CC3=C(C45CC(C(F)F)(C4)C5)CC4(CCC4)CC3)CC2)cc1,< 10
,,CC1(C)CCC(CN2CCN(c3ccc(C(=O)NS(=O)(=O)c4ccc(N[C@H](CCN5CCOCC5)CSc5ccccc5)c([N+](=O)[O-])c4)cc3)CC2)=C(C23CC(C(F)F)(C2)C3)C1,< 10
> 100,,CC1(C)CCC(CN2CCN(c3ccc(C(=O)NS(=O)(=O)c4ccc(NCC5CCOCC5)c([N+](=O)[O-])c4)c(Oc4cnc5[nH]ccc5c4)c3)CC2)=C(C23CC(F)(C2)C3)C1,
,,CC1(C)CCC(CN2CCN(c3ccc(C(=O)NS(=O)(=O)c4ccc(N[C@H](CCN5CCOCC5)CSc5ccccc5)c(S(=O)(=O)C(F)(F)F)c4)cc3)CC2)=C(C23CC(C(F)F)(C2)C3)C1,< 10
,,CN(CCO)CC[C@H](CSc1ccccc1)Nc1ccc(S(=O)(=O)NC(=O)c2ccc(N3CCN(CC4=C(C56CC(C)(C5)C6)CC(C)(C)CC4)CC3)cc2)cc1S(=O)(=O)C(F)(F)F,< 10
10 to 100,,CN1CCC(F)(CNc2ccc(S(=O)(=O)NC(=O)c3ccc(N4CCN(CC5=C(C67CC(C(F)F)(C6)C7)CC(C)(C)CC5)CC4)cc3Oc3cnc4[nH]ccc4c3)cc2[N+](=O)[O-])CC1,
10 to 100,,CN1CCOC(CNc2ccc(S(=O)(=O)NC(=O)c3ccc(N4CCN(CC5=C(C67CC(C)(C6)C7)CC(C)(C)CC5)CC4)cc3Oc3cnc4[nH]ccc4c3)cc2[N+](=O)[O-])C1 (stereo not drawn),

Kd (Bcl-XL [2]) [nM],Kd (Bcl-2) [nM],SMILES,IC50 (Bcl-XL [1]) [nM]
> 100,,CCC12CC(C3=C(CN4CCN(c5ccc(C(=O)NS(=O)(=O)c6ccc(OCC7(F)CCOCC7)c([N+](=O)[O-])c6)c(Oc6cnc7[nH]ccc7c6)c5)CC4)CCC(C)(C)C3)(C1)C2,
10 to 100,,CC1(C)CCC(C23CC(C)(C2)C3)=C(CN2CCN(c3ccc(C(=O)NS(=O)(=O)c4ccc(N[C@H](CCN5CCOCC5)CSc5ccccc5)c(S(=O)(=O)C(F)(F)F)c4)cc3)CC2)C1,
> 100,,CC1(C)CCC(CN2CCN(c3ccc(C(=O)NS(=O)(=O)c4ccc(NCC5(F)CCOCC5)c([N+](=O)[O-])c4)c(Oc4cnc5[nH]ccc5c4)c3)CC2)=C(C23CC(C(F)F)(C2)C3)C1,
,,CN(C)CC[C@H](CSc1ccccc1)Nc1ccc(S(=O)(=O)NC(=O)c2ccc(N3CCN(CC4=C(C56CC(C(F)F)(C5)C6)CC(C)(C)CC4)CC3)cc2)cc1S(=O)(=O)C(F)(F)F,< 10
> 100,,CCC12CC(C3=C(CN4CCN(c5ccc(C(=O)NS(=O)(=O)c6ccc(NCC7(F)CCOCC7)c([N+](=O)[O-])c6)c(Oc6cnc7[nH]ccc7c6)c5)CC4)CCC(C)(C)C3)(C1)C2,
,,CCN(CCO)CC[C@H](CSc1ccccc1)Nc1ccc(S(=O)(=O)NC(=O)c2ccc(N3CCN(CC4=C(C56CC(C(F)F)(C5)C6)CC(C)(C)CC4)CC3)cc2)cc1S(=O)(=O)C(F)(F)F,< 10
,,CC1(C)CCC(CN2CCN(c3ccc(C(=O)NS(=O)(=O)c4ccc(N[C@H](CCN5CCNCC5)CSc5ccccc5)c(S(=O)(=O)C(F)(F)F)c4)cc3)CC2)=C(C23CC(C(F)F)(C2)C3)C1,< 10
> 100,,CC1(C)CCC(CN2CCN(c3ccc(C(=O)NS(=O)(=O)c4ccc(OCC5(F)CCOCC5)c([N+](=O)[O-])c4)c(Oc4cnc5[nH]ccc5c4)c3)CC2)=C(C23CC(C(F)(F)F)(C2)C3)C1,
> 100,,CC1(C)CCC(CN2CCN(c3ccc(C(=O)NS(=O)(=O)c4ccc(OCC5(F)CCOCC5)c([N+](=O)[O-])c4)c(Oc4cnc5[nH]ccc5c4)c3)CC2)=C(C23CC(C)(C2)C3)C1,
> 100,,CC1(C)CCC(CN2CCN(c3ccc(C(=O)NS(=O)(=O)c4ccc(NC[C@H]5CC[C@](C)(O)CC5)c([N+](=O)[O-])c4)c(Oc4cnc5[nH]ccc5c4)c3)CC2)=C(C23CC(C(F)(F)F)(C2)C3)C1,
,,CN(C)CC[C@H](CSc1ccccc1)Nc1ccc(S(=O)(=O)NC(=O)c2ccc(N3CCN(CC4=C(C56CC(C)(C5)C6)CC(C)(C)CC4)CC3)cc2)cc1S(=O)(=O)C(F)(F)F,< 10
> 100,,CN1CCC(F)(CNc2ccc(S(=O)(=O)NC(=O)c3ccc(N4CCN(CC5=C(C67CC(C)(C6)C7)CC(C)(C)CC5)CC4)cc3Oc3cnc4[nH]ccc4c3)cc2[N+](=O)[O-])CC1,
> 100,,CC1(C)CCC(CN2CCN(c3ccc(C(=O)NS(=O)(=O)c4ccc(NCC5CCOCC5)c([N+](=O)[O-])c4)c(Oc4cnc5[nH]ccc5c4)c3)CC2)=C(C23CC(C)(C2)C3)C1,
,,CC1(C)CCC(CN2CCN(c3ccc(C(=O)NS(=O)(=O)c4ccc(N[C@H](CCN5CCN(CCO)CC5)CSc5ccccc5)c(S(=O)(=O)C(F)(F)F)c4)cc3)CC2)=C(C23CC(C(F)F)(C2)C3)C1,< 10
> 100,,CC1(C)CCC(CN2CCN(c3ccc(C(=O)NS(=O)(=O)c4ccc(NCC5CC6(CCOCC6)C5)c([N+](=O)[O-])c4)c(Oc4cnc5[nH]ccc5c4)c3)CC2)=C(C23CC(C)(C2)C3)C1,
,,CN(C)C1CCN(CC[C@H](CSc2ccccc2)Nc2ccc(S(=O)(=O)NC(=O)c3ccc(N4CCN(CC5=C(C67CC(C(F)F)(C6)C7)CC(C)(C)CC5)CC4)cc3)cc2S(=O)(=O)C(F)(F)F)CC1,< 10
> 100,,CC1(C)CCC(CN2CCN(c3ccc(C(=O)NS(=O)(=O)c4ccc(NCC5CCOCC5)c([N+](=O)[O-])c4)c(Oc4cnc5[nH]ccc5c4)c3)CC2)=C(C23CC(C(F)F)(C2)C3)C1,

SMILES,Kd (Bcl-XL [2]) [nM],Kd (Bcl-2) [nM],IC50 (Bcl-XL [1]) [nM]
CC1(C)CCC(CN2CCN(c3ccc(C(=O)NS(=O)(=O)c4ccc(NC[C@H]5CC[C@](C)(O)CC5)c([N+](=O)[O-])c4)c(Oc4cnc5[nH]ccc5c4)c3)CC2)=C(C23CC(C)(C2)C3)C1,> 100,,> 100
CC1(C)CCC(C23CC(C)(C2)C3)=C(CN2CCN(c3ccc(C(=O)NS(=O)(=O)c4ccc(N[C@H](CCN5CCC(O)CC5)CSc5ccccc5)c(S(=O)(=O)C(F)(F)F)c4)cc3)CC2)C1,10 to 100,,< 10
CC1(C)CCC(CN2CCN(c3ccc(C(=O)NS(=O)(=O)c4ccc(NCC5CCOCC5)c([N+](=O)[O-])c4)c(Oc4cnc5[nH]ccc5c4)c3)CC2)=C(C23CC(Cl)(C2)C3)C1,> 100,,
CC1(C)CCC(CN2CCN(c3ccc(C(=O)NS(=O)(=O)c4ccc(NCC5(F)CCOCC5)c([N+](=O)[O-])c4)c(Oc4cnc5[nH]ccc5c4)c3)CC2)=C(C23CC(C)(C2)C3)C1,> 100,,> 100
CC1(C)CCC(CN2CCN(c3ccc(C(=O)NS(=O)(=O)c4ccc(NC[C@H]5CC[C@](C)(O)CC5)c([N+](=O)[O-])c4)c(Oc4cnc5[nH]ccc5c4)c3)CC2)=C(C23CC(C(F)F)(C2)C3)C1,> 100,,10 to 100
